Molecular target: full-length MALT1 protein His-MALT1(1-824) (Homo sapiens, UniProt Q9UDY8)
Experiment: MALT1 protease assay, Assay 2 (1 nM MALT1, Ac-LRSR-AMC substrate)
Settings: read-out: MALT1 IC50 [nM] Assay 2; 1 nM MALT1, 50 μM Ac-LRSR-AMC, 2 h pre-incubation, 8 hr incubation at RT
Protocol: MALT1 protease activity was assessed in an in vitro assay using a tetrapeptide as substrate and full-length MALT1 protein His-MALT1(1-824) purified from baculovirus-infected insect cells. The tetrapeptide substrate is Ac-LRSR-AMC (SM Biochemicals) with Km measured at around 100 μM.
The final assay buffer includes 1 nM (Assay 2) or 2 nM (Assay 1) of MALT1 full-length protein, 50 μM Ac-LRSR-AMC substrate, 50 mM Tris pH 7.5, 600 mM Sodium Citrate, 1 mM DTT, 1 mM EDTA, and 0.05% BSA in 384-well plate format using black microtiter square well plates (Optiplate 384-F, Perkin Elmer).
Test compounds were dissolved in 100% DMSO at stock of 10 mM, with final DMSO concentration 0.1%. Test compounds were pre-incubated with MALT1 protein for 2 h at room temperature. Substrate was added after the pre-incubation and fluorescence signal was measured using Envision at excitation 355 nm and emission 460 nm after 8 hr incubation at RT. Increase in the assay signal was linear over this period and proportional with increase in the enzyme content.
The fluorescence units were transformed to percentage of remaining activity by using the high control (HC, median of fluorescence signal from wells containing MALT1 protein, substrate, and DMSO) and low control (LC, median of fluorescence signal from wells with substrate only) with the formula below: […]

By UniProt entry, the sequences of proteins in these tests, tags left out.
UniProt Q9UDY8, whole entry: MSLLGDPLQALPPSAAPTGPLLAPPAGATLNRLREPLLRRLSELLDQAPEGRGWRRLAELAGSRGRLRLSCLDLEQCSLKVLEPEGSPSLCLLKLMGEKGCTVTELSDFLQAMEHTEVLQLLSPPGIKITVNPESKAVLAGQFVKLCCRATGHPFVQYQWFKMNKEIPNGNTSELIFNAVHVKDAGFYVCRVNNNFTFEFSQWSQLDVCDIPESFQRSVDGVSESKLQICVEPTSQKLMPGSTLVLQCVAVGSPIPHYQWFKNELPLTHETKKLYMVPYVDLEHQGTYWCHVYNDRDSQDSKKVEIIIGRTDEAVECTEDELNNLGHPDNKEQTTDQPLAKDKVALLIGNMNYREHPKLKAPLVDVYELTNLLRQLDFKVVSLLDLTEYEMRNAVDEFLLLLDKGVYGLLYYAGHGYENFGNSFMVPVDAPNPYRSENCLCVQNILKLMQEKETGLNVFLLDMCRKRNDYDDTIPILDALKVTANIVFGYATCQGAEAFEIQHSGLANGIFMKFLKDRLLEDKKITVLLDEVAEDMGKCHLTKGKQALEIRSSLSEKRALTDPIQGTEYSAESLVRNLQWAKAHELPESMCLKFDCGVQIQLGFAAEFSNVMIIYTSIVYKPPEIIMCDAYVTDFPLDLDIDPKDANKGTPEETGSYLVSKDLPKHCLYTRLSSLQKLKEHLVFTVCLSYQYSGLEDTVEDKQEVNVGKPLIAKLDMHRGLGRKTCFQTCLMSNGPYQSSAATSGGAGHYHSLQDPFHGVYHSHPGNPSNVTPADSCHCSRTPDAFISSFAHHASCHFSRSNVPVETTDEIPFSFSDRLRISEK

- IC50: 100 to 1000 nM
Structure (SMILES): O=C(Nc1cnc(-n2nccn2)c(Cl)c1)C1CC2(CC2)c2c1cnc1cc(Cl)nn21 (single isomer, unassigned)

Source: US12667572B2, “Tricyclic compounds useful in the treatment of cancer, autoimmune and inflammatory disorders” (SCHRÖDINGER, INC., priority 2021, dated 2026)
